Earlier results as cited in patent publication US8030083B2, “Method of analyzing protein structural affinity relationship” (Eisai R & D Management Co., Ltd., priority 2004, dated 2011).

Test system: GSK-3α/β
Settings: Knockaert et al.; cited from earlier work

O=C1Cc2c([nH]c3ccccc23)-c2ccccc2N1 [paullone]
inhibition of GSK-3α/β: inhibitor
